# Like-named read-outs stand apart in the source and are kept apart here.
# Tested on: pERK in HCT-116 cells (KRAS G13D)
# Test: Phospho-ERK inhibition (AlphaLISA SureFire Ultra p-ERK 1/2), HCT116
# Settings: for IC50: HCT116 cells
# Procedure: All cancer cell lines (A375, A101D, A2058, RKO, HT29 SK-MEL 30, IPC298, HepG2, HCT-116, Lovo, SWV620, SW480, NCI-H358, NCI-H2122, Calu-6, NCIH2087, NCIH1755, NCIH1666 and Mewo) were obtained from ATCC and cultured in RPMI-1640 medium (Gibco) supplemented with 5% heat inactivated fetal bovine serum (FBS, Wisent) at 37° C. under 5% CO2. Cells were maintained in T175 flasks (Greiner). They were passaged by removing the culture medium, washing once in 10 mL of room temperature Phosphate Buffered Saline (PBS; Wisent) and incubating at 37° C. with 2 mL of 0.05% Trypsin (Thermo-Fisher). Trypsin was then inactivated by adding complete growth medium and the cells were then replated in a T175 culture dish at the appropriate dilution. All cell lines were routinely tested for mycoplasma contamination. Tissue type and mutational status of each cell line can be found in Table B.
# AlphaLISA® SureFire® Ultra™ p-ERK 1/2 (Thr202/Tyr204) analysis was conducted on cells plated in 100 μL of complete RPMI-1640 growth medium in 96-well flat-bottomed transparent dishes (Costar) at a density indicated in Table C. Cells were maintained overnight at 37° C. under 5% CO2 before treatment with compounds' dilution series for one hour. The cell density in cells/cm^2 corresponds to cell number divided by the area of one well of a 96-well plate ([…]).
# In a dilution series 100 μL/well of test substance dilution prepared in complete RPMI-1640 growth media was added to the cells. The dilution series is selected so that ten concentrations cover a range from 10 μM to 0.33 nM. If necessary the initial concentration of 10 μM is increased to 100 μM or lowered to 1 μM (as in the case of A375 and H1666 cells, which are generally more sensitive to the compounds) and further dilution is carried out accordingly. The final concentration of DMSO in the assay is set at 0.5%.
# After treatment, media was removed and cells were lysed in 50 μL of 1× AlphaScreen Ultra Lysis Buffer (Perkin Elmer). The AlphaLISA® SureFire® Ultra™ p-ERK 1/2 (Thr202/Tyr2O4) (PerkinElmer) reactions were performed with 5 μL of cell lysate according to the manufacturer's specifications in 384-well proxyplates (Perkin Elmer) followed by overnight incubation of the reactions at room temperature in a humidified chamber. After completion of the reactions, the signals were recorded on an EnVision plate reader (Perkin Elmer) using built in AlphaLISA® settings.
# The effect of each compound dilution on the pERK signal was expressed in % inhibition and calculated as follows. An internal 100% inhibition control ([…] trametinib, cat #HY-10999; MedChem Express; CAS #871700-17-3) was included in each plate and used as a measure of pERK background. First, the value obtained for trametinib was subtracted from each data point. The average of DMSO (vehicle) controls (set as 0% inhibition) was established and used to calculate % inhibition: % inhibition=100*(1-((pERK signalcompound)/(pERK signalDMSO)))
# The ability of each compound to inhibit pERK signal was expressed as an IC50 value obtained by plotting the inhibition values for each data point of a dilution series and fitting the obtained curves using a log(agonist) versus response-variable slope (four parameters) function using GraphPadPrism (V7.0) or Dotmatics Screening Ultra platform.
# When present, paradoxical pERK induction is inferred from the negative % inhibition values observed in the pERK IC50 curves of a compound.
# [1] = read-out: HCT116 pERK IC50, class symbol
SMILES,IC50 [1],further results
O=S(=O)(Cc1ccc(F)cc1)c1cn(-c2ccc3ncnc(Nc4c(F)ccc(NS(=O)(=O)c5cccc(Cl)c5Cl)c4F)c3n2)c2ccccc12,0.5 to 1 µM,
Cc1c(F)cccc1S(=O)(=O)Nc1ccc(F)c(Nc2ncnc3ccc(-n4nc(C(=O)NC(C)c5ccccn5)c5ccccc54)nc23)c1F (centres unmarked),1 to 10 µM,
Cc1ccc(S(=O)(=O)Nc2ccc(F)c(Nc3ncnc4ccc(-n5cnc6ccccc65)nc34)c2F)c(Cl)c1,,"HCT116 pERK Ymin % (lowest % inhibition value of the IC50 curve, HCT116): −2.0%; IC50 (read-out: HCT116 pERK IC50 in μM, 1 h treatment): 1 to 10 µM"
O=S(=O)(Nc1ccc(F)c(Nc2ncnc3ccc(-n4cc(C(F)(F)F)nn4)nc23)c1F)c1cccc(Cl)c1Cl,1 to 10 µM,
CC(C)(C)CN1CCC(S(=O)(=O)c2cn(-c3ccc4ncnc(Nc5c(F)ccc(NS(=O)(=O)c6cccc(Cl)c6Cl)c5F)c4n3)c3ccccc23)CC1,1 to 10 µM,
COCCC(=O)Nc1cn(-c2ccc3ncnc(Nc4c(F)ccc(NS(=O)(=O)c5cccc(Cl)c5Cl)c4F)c3n2)c2ccccc12,1 to 10 µM,
CCc1c(Cl)cccc1S(=O)(=O)Nc1ccc(F)c(Nc2ncnc3ccc(-n4cnc5c(N)cccc54)nc23)c1F,0.5 to 1 µM,
CN(C)CCN(C)S(=O)(=O)c1ccn(-c2ccc3ncnc(Nc4c(F)ccc(NS(=O)(=O)c5cccc(Cl)c5Cl)c4F)c3n2)c1,0.5 to 1 µM,
O=S(=O)(Nc1ccc(F)c(Nc2ncnc3ccc(-n4cnc5c(NC6CCOCC6)cccc54)nc23)c1F)c1cccc(Cl)c1Cl,1 to 10 µM,
CC(C)C(=O)c1cn(-c2ccc3ncnc(Nc4c(F)ccc(NS(=O)(=O)c5cccc(Cl)c5Cl)c4F)c3n2)c2ccccc12,1 to 10 µM,
O=C(c1cccs1)c1cn(-c2ccc3ncnc(Nc4c(F)ccc(NS(=O)(=O)c5cccc(Cl)c5Cl)c4F)c3n2)c2ccccc12,1 to 10 µM,
O=S(=O)(Nc1ccc(F)c(Nc2ncnc3ccc(-n4cc(S(=O)(=O)N[C@H]5C[C@H](O)C5)c5ccccc54)nc23)c1F)c1cccc(Cl)c1Cl (relative stereo),0.5 to 1 µM,
O=S(=O)(Nc1ccc(F)c(Nc2ncnc3ccc(-n4cc(S(=O)(=O)C5CCN(Cc6ncc[nH]6)CC5)c5ccccc54)nc23)c1F)c1cccc(Cl)c1Cl,1 to 10 µM,
O=S(=O)(Nc1ccc(F)c(Nc2ncnc3ccc(-c4cnn5c4CCC5)nc23)c1F)c1cccc(Cl)c1Cl,1 to 10 µM,
O=S(=O)(Nc1ccc(F)c(Nc2ncnc3ccc(-n4cnc5c(Cl)ccnc54)nc23)c1F)c1cccc(Cl)c1Cl,1 to 10 µM,
CN(c1ccncc1)S(=O)(=O)c1cn(-c2ccc3ncnc(Nc4c(F)ccc(NS(=O)(=O)c5cccc(Cl)c5Cl)c4F)c3n2)c2ccccc12,< 0.5 µM,
Cc1c(F)cccc1S(=O)(=O)Nc1ccc(F)c(Nc2ncnc3ccc(-n4nc(C(=O)NC(C)(C)c5ccccn5)c5ccccc54)nc23)c1F,10 to 30 µM,
Cc1nc(C)n(-c2ccc3ncnc(Nc4c(F)ccc(NS(=O)(=O)c5cccc(Cl)c5Cl)c4F)c3n2)n1,1 to 10 µM,
COCCN(C)S(=O)(=O)c1cn(-c2ccc3ncnc(Nc4c(F)ccc(NS(=O)(=O)c5cccc(Cl)c5C)c4F)c3n2)c2ccccc12,< 0.5 µM,
O=S(=O)(Nc1ccc(F)c(Nc2ncnc3ccc(-n4cnc5c(OCCO)cccc54)nc23)c1F)c1cccc(Cl)c1Cl,0.5 to 1 µM,
Cc1c(F)cccc1S(=O)(=O)Nc1ccc(F)c(Nc2ncnc3ccc(-n4nc(C(=O)N(C)CCN5CCOCC5)c5ccccc54)nc23)c1F,< 0.5 µM,
C[C@]1(CO)CCCN1S(=O)(=O)c1cn(-c2ccc3ncnc(Nc4c(F)ccc(NS(=O)(=O)c5cccc(Cl)c5Cl)c4F)c3n2)c2ccccc12,< 0.5 µM,
CN1CCCN(c2cccc3c2ncn3-c2ccc3ncnc(Nc4c(F)ccc(NS(=O)(=O)c5cccc(Cl)c5Cl)c4F)c3n2)CC1,< 0.5 µM,
Cc1c(F)cccc1S(=O)(=O)Nc1ccc(F)c(Nc2ncnc3ccc(-n4nnc5ccccc54)nc23)c1F,< 0.5 µM,
Cc1c(F)cccc1S(=O)(=O)Nc1ccc(F)c(Nc2ncnc3ccc(-n4nc(C(=O)N5CC6CCC5CN6)c5ccccc54)nc23)c1F (centres unmarked),,"IC50 (read-out: HCT116 pERK IC50, class symbol, tested form: formate): < 0.5 µM"
CN([C@H]1CCOC1)S(=O)(=O)c1cn(-c2ccc3ncnc(Nc4c(F)ccc(NS(=O)(=O)c5cccc(Cl)c5Cl)c4F)c3n2)c2ccccc12,< 0.5 µM,
C[C@H]1COC[C@@H]1NS(=O)(=O)c1cn(-c2ccc3ncnc(Nc4c(F)ccc(NS(=O)(=O)c5cccc(Cl)c5Cl)c4F)c3n2)c2ccccc12,< 0.5 µM,
N#Cc1cn(-c2ccc3ncnc(Nc4c(F)ccc(NS(=O)(=O)c5cccc(Cl)c5Cl)c4F)c3n2)c2ccccc12,0.5 to 1 µM,

# The next lines start with results.
IC50 [1],SMILES,further results
< 0.5 µM,Cc1c(F)cccc1S(=O)(=O)Nc1ccc(F)c(Nc2ncnc3ccc(-n4cnc5cc(F)c(F)cc54)nc23)c1F,
< 0.5 µM,Nc1cccc2c1ncn2-c1ccc2ncnc(Nc3c(F)ccc(NS(=O)(=O)c4scc(Cl)c4Cl)c3F)c2n1,
< 0.5 µM,Cc1c(F)cccc1S(=O)(=O)Nc1ccc(F)c(Nc2ncnc3ccc(-n4nc(C(=O)N5C6CCC5CN(C)C6)c5ccccc54)nc23)c1F,
< 0.5 µM,Cc1c(F)cccc1S(=O)(=O)Nc1ccc(F)c(Nc2ncnc3ccc(-n4nc(C(=O)N(C)Cc5ncccn5)c5ccccc54)nc23)c1F,
< 0.5 µM,Cc1c(F)cccc1S(=O)(=O)Nc1ccc(F)c(Nc2ncnc3ccc(-n4cc(S(=O)(=O)N5CCC(CO)CC5)c5ccccc54)nc23)c1F,
< 0.5 µM,CS(=O)(=O)c1cn(-c2ccc3ncnc(Nc4c(F)ccc(NS(=O)(=O)c5cccc(Cl)c5Cl)c4F)c3n2)c2cccc(N)c12,
< 0.5 µM,CC1(NS(=O)(=O)c2cn(-c3ccc4ncnc(Nc5c(F)ccc(NS(=O)(=O)c6cccc(Cl)c6Cl)c5F)c4n3)c3ccccc23)COC1,
< 0.5 µM,Nc1cccc2c1ncn2-c1ccc2ncnc(Nc3c(F)ccc(NS(=O)(=O)c4ccccc4C(F)(F)F)c3F)c2n1,
< 0.5 µM,O=S(=O)(Nc1ccc(F)c(Nc2ncnc3ccc(-n4cnc5c(N6CCC(F)(CO)CC6)cccc54)nc23)c1F)c1cccc(Cl)c1Cl,
< 0.5 µM,COc1ccc(S(=O)(=O)Nc2ccc(F)c(Nc3ncnc4ccc(-n5cnc6c(N)cccc65)nc34)c2F)c(C)c1Cl,
< 0.5 µM,Cn1ccnc1CN1CCC(S(=O)(=O)c2cn(-c3ccc4ncnc(Nc5c(F)ccc(NS(=O)(=O)c6cccc(Cl)c6Cl)c5F)c4n3)c3ccccc23)CC1,
< 0.5 µM,Cc1c(F)cccc1S(=O)(=O)Nc1ccc(F)c(Nc2ncnc3ccc(-n4cnc5c(N6CCC(C)(O)CC6)cccc54)nc23)c1F,
< 0.5 µM,CC(C)(O)C1CN(c2cccc3c2ncn3-c2ccc3ncnc(Nc4c(F)ccc(NS(=O)(=O)c5cccc(Cl)c5Cl)c4F)c3n2)C1,
< 0.5 µM,Cc1c(F)cccc1S(=O)(=O)Nc1ccc(F)c(Nc2ncnc3ccc(-n4cnc5c(C(N)=O)cccc54)nc23)c1F,
< 0.5 µM,Nc1cccc2c1ncn2-c1ccc2ncnc(Nc3c(F)ccc(NS(=O)(=O)c4cccc(F)c4C(F)(F)F)c3F)c2n1,
< 0.5 µM,Cc1c(F)cccc1S(=O)(=O)Nc1ccc(F)c(Nc2ncnc3ccc(-n4nc(C(=O)N(C)Cc5ccncc5)cc4C)nc23)c1F,
< 0.5 µM,Cc1ncn(-c2ccc3ncnc(Nc4c(F)ccc(NS(=O)(=O)c5cccc(F)c5C)c4F)c3n2)c1C,
< 0.5 µM,O=S(=O)(Nc1ccc(F)c(Nc2ncnc3ccc(-n4cnc5c(N6CC[C@H](O)C6)cccc54)nc23)c1F)c1cccc(Cl)c1Cl,
< 0.5 µM,CCc1ccccc1S(=O)(=O)Nc1ccc(F)c(Nc2ncnc3ccc(-n4cnc5c(N)cccc54)nc23)c1F,
< 0.5 µM,CN1CC2CCC(C1)N2S(=O)(=O)c1cn(-c2ccc3ncnc(Nc4c(F)ccc(NS(=O)(=O)c5cccc(Cl)c5Cl)c4F)c3n2)c2ccccc12,
< 0.5 µM,Cc1c(Cl)csc1S(=O)(=O)Nc1ccc(F)c(Nc2ncnc3ccc(-n4cnc5c(N)cccc54)nc23)c1F,
